Data from patent publication US11091495B2, “Substituted imidazo[1,2-c]pyrimidines as PRC2 inhibitors” (Mirati Therapeutics, Inc., priority 2018, dated 2021).

Sequences of proteins named here, by UniProt entry; tags and fusion partners are left off.
UniProt O75530, whole entry, looked up: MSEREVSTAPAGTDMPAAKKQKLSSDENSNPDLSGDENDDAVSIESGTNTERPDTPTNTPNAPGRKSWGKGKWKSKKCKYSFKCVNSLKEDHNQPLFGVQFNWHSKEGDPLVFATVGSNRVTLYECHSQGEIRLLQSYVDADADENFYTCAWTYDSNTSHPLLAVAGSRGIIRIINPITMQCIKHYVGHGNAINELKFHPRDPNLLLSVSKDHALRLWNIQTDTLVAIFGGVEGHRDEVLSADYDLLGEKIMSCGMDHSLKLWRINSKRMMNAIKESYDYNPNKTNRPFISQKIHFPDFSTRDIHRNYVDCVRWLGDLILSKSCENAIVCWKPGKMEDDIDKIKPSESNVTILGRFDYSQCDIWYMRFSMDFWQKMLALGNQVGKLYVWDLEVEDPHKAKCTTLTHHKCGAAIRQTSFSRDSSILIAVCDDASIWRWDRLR

Molecular target: purified human, His-tagged PRC2 complex (Homo sapiens (Human), UniProt O75530)
Test: Hot Spot HMT assay of PRC2 enzymatic activity
Format: biochemical
Conditions: read-out: IC50, Inhibition of PRC2-mediated Enzymatic Activity; 10 nM PRC2 complex, core histone H3, 1 uM 3H-SAM, 1 hr at 30° C

Compound: Cc1cc(-c2cnc(NCc3cccc4c3CCCO4)n3cc(C#N)nc23)n(C)n1
- IC50: > 500 nM
